The results in this text go back to ChEMBL document CHEMBL1944627, “[¹⁸F]GE-180: a novel fluorine-18 labelled PET tracer for imaging Translocator protein 18 kDa (TSPO)” (Bioorg Med Chem Lett, 2012).

SMILES strings stand for the structures.

Data set [1] is described as follows: Ratio of drug uptake in striatum in Sprague-Dawley rat at 1 to 3 MBq, iv after 2 mins to drug uptake in striatum in Sprague-Dawley rat at 1 to 3 MBq, iv after 30 mins. The settings on record: in vivo.
Data set [2] is described as follows: Ratio of drug uptake in olfactory bulb to striatum in Sprague-Dawley rat at 1 to 3 MBq, iv after 30 mins by gamma counting. The settings on record: in vivo, 0.5 h.

Turning to `O=C(C1CCCc2c1c1ccccc1n2CC[18F])N1CCCC1` (stereo unspecified), the Ratio in data set [1] turned out to be 3.88; in data set [2] it was 1.33.

Turning to `CCN(CC)C(=O)C1CCCc2c1c1cc(F)ccc1n2CC[18F]` (stereo unspecified), the Ratio in data set [1] is on record as 4.27; in data set [2], 3.72.

On to `COc1ccc(OC)c(CN(C(=O)C[18F])c2ccccc2Oc2ccccc2)c1`, for which the Ratio in data set [1] was 4.64; in data set [2] it was 3.5.
